# Measurements from paper PMC6142812 (Bioorganic & medicinal chemistry letters, 2018).
# The chains behind the UniProt entries cited, without tags or fusion partners. Residues count along the entry.
# UniProt P41594, 21-1212: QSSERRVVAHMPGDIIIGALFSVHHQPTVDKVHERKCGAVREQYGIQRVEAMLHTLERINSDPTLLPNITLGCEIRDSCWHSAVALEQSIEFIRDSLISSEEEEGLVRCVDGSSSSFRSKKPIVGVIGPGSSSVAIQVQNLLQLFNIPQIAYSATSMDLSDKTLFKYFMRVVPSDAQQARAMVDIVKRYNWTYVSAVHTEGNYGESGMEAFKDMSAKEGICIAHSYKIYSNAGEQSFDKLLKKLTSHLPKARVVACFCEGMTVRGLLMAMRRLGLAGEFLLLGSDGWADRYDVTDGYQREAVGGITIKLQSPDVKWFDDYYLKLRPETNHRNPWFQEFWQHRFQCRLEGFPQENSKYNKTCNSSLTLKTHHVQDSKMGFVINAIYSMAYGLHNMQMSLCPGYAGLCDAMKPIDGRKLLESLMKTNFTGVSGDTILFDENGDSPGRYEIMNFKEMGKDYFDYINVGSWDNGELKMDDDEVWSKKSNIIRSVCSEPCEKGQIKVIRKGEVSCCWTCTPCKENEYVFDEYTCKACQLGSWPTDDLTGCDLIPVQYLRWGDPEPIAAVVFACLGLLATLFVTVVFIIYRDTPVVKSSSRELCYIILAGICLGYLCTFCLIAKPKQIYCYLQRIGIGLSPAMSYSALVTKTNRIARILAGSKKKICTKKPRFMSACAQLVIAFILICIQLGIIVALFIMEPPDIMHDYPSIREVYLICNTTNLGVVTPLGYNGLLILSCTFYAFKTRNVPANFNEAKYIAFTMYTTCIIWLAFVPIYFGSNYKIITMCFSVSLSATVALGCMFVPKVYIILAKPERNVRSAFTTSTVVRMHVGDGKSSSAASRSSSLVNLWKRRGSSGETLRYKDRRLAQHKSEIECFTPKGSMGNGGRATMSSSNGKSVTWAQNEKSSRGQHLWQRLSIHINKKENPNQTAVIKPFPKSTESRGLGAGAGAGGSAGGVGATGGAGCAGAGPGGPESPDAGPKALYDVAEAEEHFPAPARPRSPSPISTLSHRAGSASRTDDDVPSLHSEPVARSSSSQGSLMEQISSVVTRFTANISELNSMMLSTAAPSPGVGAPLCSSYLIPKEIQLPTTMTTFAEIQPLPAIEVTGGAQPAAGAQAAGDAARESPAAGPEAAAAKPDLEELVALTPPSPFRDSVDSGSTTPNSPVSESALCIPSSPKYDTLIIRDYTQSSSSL
# What was measured:
# [1] = test system: other seven mGlu receptors
# human mGlu5 = human mGlu5 (Homo sapiens, UniProt P41594)
smiles,measurement,setting,value
"Cc1csc(NC(=O)c2cc(C(F)(F)c3cncnc3)cc3cccnc23)n1 [Compound 27, 6-(Difluoro(pyrimidin-5-yl)methyl)-N-(4-methylthiazol-2-yl)quinoline-8-carboxamide]",activity versus the other seven mGlu receptor subtypes (in words),[1],inactive
same,effect on glutamate CRC (in words),human mGlu5,fully blocked the glutamate CRC
